Values quoted from earlier work as cited in article PMC7285485, “Antifungal and Antibiofilm Activities and the Mechanism of Action of Repeating Lysine-Tryptophan Peptides against Candida albicans” (Microorganisms, 2020).

Tested on: red blood cells
Conditions: 200 µM peptide, ref [35]; cited from earlier work
From the text: Furthermore, it maintained its antifungal activity in physiological salt concentrations and at low pH values.

## CC[C@H](C)[C@H](NC(=O)CN)C(=O)NCC(=O)N[C@@H](C)C(=O)N[C@H](C(=O)N[C@@H](CC(C)C)C(=O)N[C@@H](CCCCN)C(=O)N[C@H](C(=O)N[C@@H](CC(C)C)C(=O)N[C@H](C(=O)N[C@H](C(=O)NCC(=O)N[C@@H](CC(C)C)C(=O)N1CCC[C@H]1C(=O)N[C@@H](C)C(=O)N[C@@H](CC(C)C)C(=O)N[C@H](C(=O)N[C@@H](CO)C(=O)N[C@@H](Cc1c[nH]c2ccccc12)C(=O)N[C@H](C(=O)N[C@@H](CCCCN)C(=O)N[C@@H](CCCNC(=N)N)C(=O)N[C@@H](CCCCN)C(=O)N[C@@H](CCCNC(=N)N)C(=O)N[C@@H](CCC(N)=O)C(=O)N[C@@H](CCC(N)=O)C(N)=O)[C@@H](C)CC)[C@@H](C)CC)[C@@H](C)O)[C@@H](C)O)C(C)C)C(C)C [Melittin, melittin, reference compound]
  Hemolysis: 100%
